Earlier results on one substance are cited in US11266707B2, “Nutraceuticals for the prevention, inhibition, and treatment of SARS-CoV-2 and associated COVID-19” (priority 2020, dated 2022).

For data set [1], the system named is lipopolysaccharide-activated macrophages. The following applies: 5 and 10 microM for 6-24 hr, versus macrophages without EGCG; cited from earlier work.
In data set [2] the test system is LPS-induced ARDS. The following applies: 10 mg/kg ip; cited from earlier work.
For data set [3] the following is noted: 50 and 100 mg/kg/day, compared with the MD group; cited from earlier work.

In the case of Epigallocatechin-3-Gallate [EGCG], in data set [1], the “iNOS activity in soluble extracts” value is recorded as “significantly lower”. The wet-to-dry weight ratios entry in data set [2] is “reduced”. Besides, in data set [3], the “disease activity index (DAI)” value is “decreased” and the “spleen index (SI)” value is reported as “decreased”.
